Measured values published in patent publication US6355823B1 (Board of Regents, The University of Texas System, priority 1999, dated 2002).

Chains of the proteins cited; added tags and fusions are not shown. Lines headed by an entry give the natural chain unless they say otherwise; changes in a name come on top.
UniProt G1SIP4: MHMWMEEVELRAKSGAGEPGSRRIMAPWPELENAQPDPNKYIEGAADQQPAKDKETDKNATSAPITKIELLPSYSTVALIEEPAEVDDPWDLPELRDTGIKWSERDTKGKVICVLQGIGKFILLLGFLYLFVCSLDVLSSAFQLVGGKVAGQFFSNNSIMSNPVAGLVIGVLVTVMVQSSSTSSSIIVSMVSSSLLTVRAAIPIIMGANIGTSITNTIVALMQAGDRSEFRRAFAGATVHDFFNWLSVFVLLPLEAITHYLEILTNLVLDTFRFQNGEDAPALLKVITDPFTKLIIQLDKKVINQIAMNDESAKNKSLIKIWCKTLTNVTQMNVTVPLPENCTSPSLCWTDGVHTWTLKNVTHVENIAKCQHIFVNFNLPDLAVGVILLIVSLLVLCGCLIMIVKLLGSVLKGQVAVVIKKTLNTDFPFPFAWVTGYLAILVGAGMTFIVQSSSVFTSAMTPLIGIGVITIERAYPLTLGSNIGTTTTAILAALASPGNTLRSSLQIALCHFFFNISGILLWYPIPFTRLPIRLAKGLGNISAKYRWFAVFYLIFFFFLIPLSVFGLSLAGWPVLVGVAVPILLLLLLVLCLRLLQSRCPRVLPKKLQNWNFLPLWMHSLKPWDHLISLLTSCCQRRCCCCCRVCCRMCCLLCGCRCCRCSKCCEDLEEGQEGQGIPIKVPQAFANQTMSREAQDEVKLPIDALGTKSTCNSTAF

How the values were obtained:
[1] = biological target: intestinal brush border membrane alkaline phosphatase (Oryctolagus cuniculus, UniProt G1SXE4); assay: Inhibition of alkaline phosphatase hydrolysis of 4-nitrophenylphosphate; assay type: biochemical
[2] = biological target: intestinal BBM Na/phosphate co-transporter (Oryctolagus cuniculus, UniProt G1SIP4); assay: [3H]2′-PP binding to Ca-BBM protein; conditions: read-out: concentration inhibiting 50% of Na-dependent 2′-PP bound to Ca-BBM; n=3

| Substance | substrate of alkaline / apical membrane phosphatase [1] | IC50 [2] [µM] |
| --- | --- | --- |
| 1-[2,6-dihydroxy-4-(phosphonoimino)phenyl]-3-4-hydroxyphenyl)-1-propanone | not a substrate |  |
| Difluorophosphate |  | 48 |
